{"sequences": {"note": "Sequences of proteins named here, by UniProt entry; tags and fusion partners are left off. Residues count along the entry.", "UniProt P04150, whole entry": "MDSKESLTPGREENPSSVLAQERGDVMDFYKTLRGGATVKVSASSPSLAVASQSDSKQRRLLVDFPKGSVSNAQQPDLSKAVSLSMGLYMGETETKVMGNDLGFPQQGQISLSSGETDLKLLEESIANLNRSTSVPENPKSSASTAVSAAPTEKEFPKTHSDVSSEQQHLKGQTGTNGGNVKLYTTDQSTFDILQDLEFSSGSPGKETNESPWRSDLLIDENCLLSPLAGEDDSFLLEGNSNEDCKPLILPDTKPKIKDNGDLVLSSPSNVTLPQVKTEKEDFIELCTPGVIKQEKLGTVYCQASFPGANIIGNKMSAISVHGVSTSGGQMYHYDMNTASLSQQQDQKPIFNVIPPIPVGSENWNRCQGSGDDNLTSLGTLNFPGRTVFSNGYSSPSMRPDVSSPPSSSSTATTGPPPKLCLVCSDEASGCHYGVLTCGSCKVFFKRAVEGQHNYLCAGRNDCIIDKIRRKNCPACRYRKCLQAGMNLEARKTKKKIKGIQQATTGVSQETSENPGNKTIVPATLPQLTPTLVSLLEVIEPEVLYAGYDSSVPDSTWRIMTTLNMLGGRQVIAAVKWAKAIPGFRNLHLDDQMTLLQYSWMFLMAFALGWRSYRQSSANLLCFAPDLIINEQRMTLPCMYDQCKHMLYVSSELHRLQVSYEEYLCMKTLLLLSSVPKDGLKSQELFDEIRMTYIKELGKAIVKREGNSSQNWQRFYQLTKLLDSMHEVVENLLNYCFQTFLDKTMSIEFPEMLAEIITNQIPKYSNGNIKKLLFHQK", "UniProt P08235, whole entry": "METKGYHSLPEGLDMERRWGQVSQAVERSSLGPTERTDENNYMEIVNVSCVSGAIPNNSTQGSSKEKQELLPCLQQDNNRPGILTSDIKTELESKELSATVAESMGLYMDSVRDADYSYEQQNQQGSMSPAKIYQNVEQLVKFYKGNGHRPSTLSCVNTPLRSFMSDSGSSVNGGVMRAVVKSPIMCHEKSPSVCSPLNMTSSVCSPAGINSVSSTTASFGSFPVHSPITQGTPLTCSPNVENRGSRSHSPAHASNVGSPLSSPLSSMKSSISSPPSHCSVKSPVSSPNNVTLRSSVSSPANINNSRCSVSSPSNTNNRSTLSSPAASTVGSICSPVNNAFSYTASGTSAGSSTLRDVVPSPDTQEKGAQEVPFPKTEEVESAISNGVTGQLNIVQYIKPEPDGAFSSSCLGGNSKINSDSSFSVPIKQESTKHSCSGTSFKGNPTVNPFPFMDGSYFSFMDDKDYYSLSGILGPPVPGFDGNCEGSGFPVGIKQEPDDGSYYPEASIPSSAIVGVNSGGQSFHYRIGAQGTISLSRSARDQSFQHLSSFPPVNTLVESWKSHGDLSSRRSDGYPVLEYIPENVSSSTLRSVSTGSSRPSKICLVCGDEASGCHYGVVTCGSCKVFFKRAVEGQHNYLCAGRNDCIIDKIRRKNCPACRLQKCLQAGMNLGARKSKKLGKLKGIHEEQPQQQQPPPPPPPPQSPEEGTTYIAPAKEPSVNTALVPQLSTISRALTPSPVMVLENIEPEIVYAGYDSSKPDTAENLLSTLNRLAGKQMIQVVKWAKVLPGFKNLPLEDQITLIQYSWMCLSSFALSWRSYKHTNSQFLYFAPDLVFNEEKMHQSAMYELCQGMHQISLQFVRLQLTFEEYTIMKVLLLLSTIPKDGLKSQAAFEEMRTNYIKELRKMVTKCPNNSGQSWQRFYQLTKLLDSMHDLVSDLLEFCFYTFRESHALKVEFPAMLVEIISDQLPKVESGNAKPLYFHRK", "UniProt P08235, 726-964 limits assumed": "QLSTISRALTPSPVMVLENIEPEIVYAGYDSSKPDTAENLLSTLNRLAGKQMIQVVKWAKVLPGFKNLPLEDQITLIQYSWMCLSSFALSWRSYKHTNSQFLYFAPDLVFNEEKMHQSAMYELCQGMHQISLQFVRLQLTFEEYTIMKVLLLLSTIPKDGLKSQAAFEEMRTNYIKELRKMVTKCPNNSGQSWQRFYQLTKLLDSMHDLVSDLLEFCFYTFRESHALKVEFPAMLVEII"}, "source": "paper PMC8795149", "about": "“Characterization of a novel non-steroidal glucocorticoid receptor agonist optimized for topical treatment” (Scientific Reports, 2022)", "key": {"GR [1]": {"biological_target": "T1, GR (Homo sapiens, UniProt P04150)", "test": "Transactivation assay, MMTV promoter luciferase in HeLa cells", "settings": "read-out: Transactivation EC50, 20 h, geometric mean, tested form: Na salt"}, "[2]": {"test": "Compound concentration in dermis, human skin explants", "settings": "after dosing LEO 134310, human skin explants, 24 h; tested form: Na salt", "method": "NativeSkin models (NS002) were purchased from Genoskin, France. Human skin samples from abdominal reduction surgery were obtained by Genoskin from donors upon written informed consent. Full ethical approval for the study protocol was obtained from the French ethical research committee (Comité de Protection des Personnes), and authorization was given by the French Ministry of Research. The study was conducted according to the Declaration of Helsinki. 8 mm punch biopsies were excised and embedded in a fibrin-based matrix in transwells and a silicone ring was firmly attached to the surface covering the outer edge of the skin biopsy to prevent lateral diffusion of topically applied formulations. […]\nThe concentrations of the compounds in dermis were determined from skin biopsies from the human skin explants. […] After homogenization, the samples were diluted, centrifuged and precipitated with acetonitrile containing internal standard (IS), and the compounds were thereafter quantified by means of liquid chromatography-tandem mass spectrometry (LC-MS/MS) using an AB Sciex 5500 or 6500 QTRAP. Calibration curves were prepared by spiking the analytes in blank homogenate, and a generic IS were used in quantification. The dermis micro molar concentrations were calculated assuming 1 gram of skin tissue equal to 1 mL."}, "[3]": {"test_system": "LPS-induced TNF-alpha release in PBMCs", "test": "TNF-alpha inhibition assay, pig PBMCs", "settings": "tested form: Na salt", "method": "(§1) PMBCs were isolated from human buffy coats or animal whole blood (EDTA-treated). Buffy coats from anonymized healthy adult blood donors were obtained from the Blood Bank of the National University Hospital Copenhagen in accordance with national legislation. Whole blood from mice (obtained from Charles River) was sampled at the animal facility at LEO Pharma and whole blood from pigs was sourced from ScanTox. Test compounds and PBMCs were incubated with 1 µg/ml LPS (Sigma) overnight at 37 °C in HEPES and Glutamax-containing RPMI medium supplemented with either 0.5% human serum albumin (human PBMCs) or 10% fetal bovine serum (mouse and pig PBMCs) and penicillin/streptomycin. TNF-alpha was measured using AlphaLISA (Perkin Elmer).\n(§2) IC50 of test compounds was determined by 10-point titrations in duplicates. IC50 values and other parameters were calculated by sigmoidal curve fitting in Assay Explorer."}, "GR [4]": {"biological_target": "T1, GR", "test": "Transrepression assay, PMA-induced MMP1 promoter luciferase in HeLa cells", "settings": "tested form: Na salt"}, "[5]": {"biological_target": "mineralocorticoid receptor (MR) (Homo sapiens, UniProt P08235)", "test": "MR agonist assay, MR-luciferase reporter cells", "settings": "24 h incubation; 'in contrast' = unlike LEO 134310, which gave no significant activation; tested form: Na salt"}, "[6]": {"test_system": "PPAR-alpha, LXR-beta, RAR-alpha, RXR-alpha, ER-alpha, PR, AR, ER-beta and TR", "test": "Selectivity screening on nuclear receptors, radioligand binding (CEREP)", "settings": "10µM; greater than 25% displacement considered significant; tested form: Na salt", "method": "Selectivity screening on nuclear receptors – Studies were performed at CEREP using their proprietary assays for human PPARalpha, LXRbeta, RARalpha, RXRalpha, ERalpha, ERbeta, progesterone receptor, androgen receptor and thyroid hormone receptor employing specific, radiolabeled agonist ligands. Interactions leading to greater than 25% displacement of the radiolabeled agonist ligand were considered significant. Concentrations of LEO 134310 and LEO 134998 were 10µM."}, "[7]": {"test_system": "8 ion channels, 40 kinases, 2 phosphatases, up to 163 G-protein coupled receptors", "test": "Off-target panels (Eurofins IonChannelProfiler, KinaseProfiler, GPCRProfiler)", "settings": "10 µM; tested form: Na salt"}, "[8]": {"test_system": "LPS-induced TNF-alpha release in PBMCs", "test": "TNF-alpha inhibition assay, mouse PBMCs", "settings": "tested form: Na salt", "method": "as §1, §2"}, "[9]": {"biological_target": "human Mineralocorticoid Receptor (Homo sapiens, UniProt P08235)", "test": "MR antagonist assay, MR reporter assay", "settings": "tested form: Na salt"}, "[10]": {"test_system": "LPS-induced TNF-alpha release in PBMCs", "test": "TNF-alpha inhibition assay, human PBMCs", "settings": "tested form: Na salt", "method": "as §1, §2"}}}
{"smiles": "C[C@H](NC(=O)[C@H]1CCCO1)[C@H](Oc1ccc(C(=O)O[C@H]2CCCN(C(=O)[C@@H](CO)CC(=O)O)C2)cc1)c1ccc(C2CC2)cc1", "values": [{"measurement": "EC50", "setting": "GR [1]", "result": 560, "unit": "nM"}, {"measurement": "Dermis concentrations of metabolite relative to parent", "setting": "[2]", "result": "comparable to parent"}, {"measurement": "Inhibition of LPS-induced TNF-alpha release Emax", "setting": "[3]", "result": 93, "unit": "%"}, {"measurement": "Transrepression Emax", "setting": "GR [4]; PMA-induced MMP1 promoter, HeLa cells", "result": 98, "unit": "%"}, {"measurement": "Loss of potency in the transrepression assay compared to LEO 134310", "setting": "GR [4]", "result": "about 40 fold"}, {"measurement": "Activation of MR (luciferase activity)", "setting": "[5]", "result": "did not activate MR either"}, {"measurement": "Interaction with nine nuclear hormone receptors in specific binding assays", "setting": "[6]", "result": "no significant interaction"}, {"measurement": "Off-target activity in ion channel, kinase, phosphatase and GPCR panels", "setting": "[7]", "result": "no off-target activity was identified"}, {"measurement": "Inhibition of LPS-induced TNF-alpha release Emax", "setting": "[8]", "result": 100, "unit": "%"}, {"measurement": "Antagonist activity on MR", "setting": "[9]", "result": "no antagonist activity on MR"}, {"measurement": "Inhibition of LPS-induced TNF-alpha release Emax", "setting": "[10]", "result": 75, "unit": "%"}]}
